Yeast UUG start: modulators of yeast start codon fidelity, primary screen, whole organism, S. cerevisiae, single point, plate reader; activity score, % at 18.7 µM; actives 0.13% (n = 350,000); S. cerevisiae UUG-firefly luciferase reporter, luminescence/redox ratio;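 active = replicate mean at a twofold rise or more, about +100% in these data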;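 also: firefly luciferase made from a UUG start codon reports start codon fidelity; reporter light over untreated wells divided by growth signal over untreated wells; some hits fall short of that in this replicate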
MITF act: activators of MITF-driven TRPM1 promoter activity in SK-MEL-5 cells. SK-MEL-5 TRPM1-promoter luciferase, 24 h; % of positive control, neutral wells = 0. activation, % at 12.5 µM. 300,000 tested, 0.75% active. AID 588334;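 active = mean activation of at least 80% with every replicate also reaching 80%; inconclusive = mean reaches 80% but some replicate falls short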;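 note: 0% = neutral control wells and 100% = parthenolide positive control wells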
Wnt act: activates Wnt/beta-catenin signaling in a reporter cell assay; 300,000 tested, 1.2% active; AID 743398; activation, % at 9.35 µM; activator, plate reader; in the data active = activation above about 30%, passing the limit was not always enough; inconclusive = no clear call, values can overlap the other calls;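 note: 0% = neutral control wells and 100% = positive control wells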
MITF TRPM1 inh: MITF TRPM1 promoter inhibition in SK-MEL-5 cells; SK-MEL-5 TRPM1 promoter luciferase, 24 h; inhibition, % at 12.5 µM; 330,000 tested, 0.83% active;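 active = mean inhibition across replicates of 60% or more, whatever share of single replicates reaches that level; inconclusive = some that reach 60%, reason not given; inactive = mean inhibition across replicates below 60%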
miR-122 sensor: blocks miR-122 activity in Huh7 sensor cells; 340,000 tested, 0.3% active; Huh7 miR-122 Renilla luciferase sensor, 48 h; neutral wells = 0, positive control = 100; AID 602342; activation (reporter increase), % at 12.5 µM;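 active = mean replicate activation score at least 90 and every replicate individually at or above 90; inconclusive = only one of the two criteria met; inactive = neither criterion met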;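 note: higher luciferase means less miR-122 activity so hits act as miR-122 inhibitors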
PGC1a acetyl inh: lowers PGC1a acetylation signal in U2OS cells; 350,000 tested, 0.17% active; AlphaScreen anti-acetyl-lysine; with virally co-expressed GCN5 acetyltransferase; inhibition, % at 15.6 µM;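 active = every replicate shows inhibition of at least 40%; inconclusive = mean inhibition at least 40% but some replicate below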;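 note: 0% = neutral control wells and 100% = positive control wells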
Starred values were filed as active, the others as inactive; ? = inconclusive; . = no result given; [ ] = another dose, or the depositor's remark. Sampled rows, rich in hits. Any-hit rate of the full collection: about 2.1%.

| No. | SMILES | Yeast UUG start | MITF act | Wnt act | MITF TRPM1 inh | miR-122 sensor | PGC1a acetyl inh |
| --- | --- | --- | --- | --- | --- | --- | --- |
| 1 | Cc1ccccc1CNC(=O)Nc1ccc(Cl)cc1 | -17 | 63 | 10 | -61 | 1 | -6 |
| 2 | COc1cc(NC(=O)Cc2ccccc2)nc(OC)n1 | -8 | -7 | . | 5 | 8 | 3 |
| 3 | Cc1ccc(CNC(=O)Nc2ccccc2)c(C)c1 | -27 | 118* | 11 | -115 | 1 | 7 |
| 4 | COc1ccc(C(=O)Nc2cccc(C)c2)cc1 | -23 | . | 58* | -52 | -2 | -9 |
| 5 | COc1ccc(CNC(=O)Nc2cccc(C)c2)cc1 | -12 | 75 | 35* | -67 | 1 | -26 |
| 6 | COc1ccc(C(=O)Nc2cc(OC)nc(OC)n2)cc1 | -30 | 92* | . | -85 | 5 | -4 |
| 7 | C[C@H](CO)N1C[C@H](C)[C@H](CN(C)S(=O)(=O)c2ccccc2)Oc2c(cccc2N(C)C)C1=O | -17 | . | . | . | 6[16.7 µM] | 0 |
| 8 | O=C(C[C@H]1C[C@@H]2c3cc(NC(=O)C4CCC4)ccc3O[C@@H]2[C@@H](CO)O1)NCC1CC1 | 0 | . | . | . | 6[16.7 µM] | 1 |
| 9 | Cc1nc(OCC(C)C)c2sc3nc4c(cc3c2n1)COC(C)(C)C4 | -7 | . | 52* | . | 9 | -4 |
| 10 | CC(=O)Nc1ccc(C(=O)COC(=O)C2CCCCC2)c(F)c1 | -31 | 48 | -3 | -52 | 0 | 2 |
| 11 | CC(=O)Nc1ccc(C(=O)COC(=O)C2CC2)c(F)c1 | -41 | 126* | 38* | -125 | . | . |
| 12 | CCCC(=O)Nc1ccc(C(=O)COC(=O)C2CC2)cc1 | -28 | 73 | 48* | -70 | 0 | -7 |
| 13 | CCC(=O)N1[C@@H]2c3ccc(C4=CCCC4)c(=O)n3C[C@@H]2[C@@H](CO)[C@@H]1C(=O)NCc1ccccc1 | . | . | . | . | -5[16.7 µM] | . |
| 14 | CCOC(=O)c1nn(-c2ccc3c(c2)OCCO3)cc1O | -32 | 82* | 27 | -86 | -1 | 31 |
| 15 | Cc1c(C)c2ccc(OCC(=O)c3ccccc3)cc2oc1=O | -5 | 94* | 26 | -95 | -1 | 10 |
| 16 | COc1cccc(C(=O)COc2ccc3c(C)c(Cc4ccccc4)c(=O)oc3c2)c1 | . | 6 | -1 | -6 | . | . |
| 17 | O=C(c1ccccc1F)N1CC(=O)N2[C@H](C1)[C@@H](c1ccc(-c3ccccc3)cc1)[C@@H]2CO | . | . | . | . | . | 10 |
| 18 | Cc1cc(C)cc(NC2=NC3(CCCCC3)N=C(N)N2)c1 | -13 | -34 | 2 | 32 | 109* | 25 |
| 19 | O=C(Nc1cccc(Cl)c1)N1C[C@H]2[C@@H](c3ccccc31)[C@@H](CO)N2C(=O)C1CC1 | -2 | . | . | . | 0[16.7 µM] | 2 |
| 20 | Cc1ccc(S(=O)(=O)N(C)C[C@@H]2OCc3ccccc3-c3ccccc3C(=O)N([C@H](C)CO)C[C@@H]2C)cc1 | 5 | . | . | . | . | 10 |

The closing 5 records of the part above lead into the next.
| No. | SMILES | Yeast UUG start | MITF act | Wnt act | MITF TRPM1 inh | miR-122 sensor | PGC1a acetyl inh |
| --- | --- | --- | --- | --- | --- | --- | --- |
| 16 | COc1cccc(C(=O)COc2ccc3c(C)c(Cc4ccccc4)c(=O)oc3c2)c1 | . | 6 | -1 | -6 | . | . |
| 17 | O=C(c1ccccc1F)N1CC(=O)N2[C@H](C1)[C@@H](c1ccc(-c3ccccc3)cc1)[C@@H]2CO | . | . | . | . | . | 10 |
| 18 | Cc1cc(C)cc(NC2=NC3(CCCCC3)N=C(N)N2)c1 | -13 | -34 | 2 | 32 | 109* | 25 |
| 19 | O=C(Nc1cccc(Cl)c1)N1C[C@H]2[C@@H](c3ccccc31)[C@@H](CO)N2C(=O)C1CC1 | -2 | . | . | . | 0[16.7 µM] | 2 |
| 20 | Cc1ccc(S(=O)(=O)N(C)C[C@@H]2OCc3ccccc3-c3ccccc3C(=O)N([C@H](C)CO)C[C@@H]2C)cc1 | 5 | . | . | . | . | 10 |
| 21 | CCCNC(=O)C[C@H]1CC[C@H]2[C@H](COc3ccc(NC(=O)Cc4cccs4)cc3C(=O)N2C)O1 | 6 | . | . | . | 167*[16.7 µM] | -12 |
| 22 | CCCNC(=O)C[C@@H]1CC[C@H]2[C@H](COc3ccc(NC(=O)Cc4cccs4)cc3C(=O)N2C)O1 | 11 | . | . | . | 207*[16.7 µM] | 6 |
| 23 | CN1CCN(C(=O)C[C@H]2C[C@H]3c4cc(NC(=O)NC5CCCCC5)ccc4O[C@H]3[C@H](CO)O2)CC1 | -2 | . | . | . | -2[16.7 µM] | 2 |
| 24 | CC(C)NC(=O)N(C)C[C@@H]1Oc2ccc(NC(=O)Nc3ccccc3)cc2C(=O)N([C@H](C)CO)C[C@H]1C | -17 | . | . | . | 2[16.7 µM] | 5 |
| 25 | CCCCOc1ccc(C(=O)Nc2cccc(C)n2)cc1 | -32 | 103* | . | -105 | -1 | -4 |
| 26 | N/C(=N\OC(=O)c1ccccc1)C(Cc1ccccc1)C(=O)NOC(=O)c1ccccc1 (stereo unspecified) | -6 | -60 | 2 | 62* | -4 | -3 |
| 27 | O=C(NOC(=O)c1ccccc1)c1ccccc1 | 98 | . | 0 | 7 | 1 | -4 |
| 28 | COc1cc(/C=C2/CCc3ccccc3C2=O)cc(OC)c1OC | 0 | 1 | . | -2 | 9 | 18 |
| 29 | COc1ccc(/C=C2\COc3ccccc3C2=O)cc1OC | . | -8 | 33* | 8 | . | . |
| 30 | CCOc1cc(/C=N/Nc2nc3ccccc3[nH]2)cc(Br)c1OCC(=O)N(C)C | -15 | -14 | 0 | 15 | 1 | -26 |
| 31 | COc1ccc(/C=C2/CCc3ccccc3C2=O)cc1OC | 2 | 19 | 50* | -18 | -4 | 7 |
| 32 | COc1ccc(/C=C2\COc3ccccc3C2=O)c(OC)c1 | -10 | 37 | -5 | -33 | . | . |
| 33 | COc1ccc(/C=C2\OC(=O)c3c(OC)cccc32)cc1OC | -6 | 125* | . | -122 | . | . |
| 34 | CCOc1cc(/C=C2\COc3ccccc3C2=O)cc(Br)c1OCC(=O)N(C)C | 8 | -88 | -18 | 89* | -2 | . |
| 35 | NCC[C@H]1CC[C@H](NC(=O)c2ccccc2F)[C@H](CO)O1 | . | . | . | . | . | 10 |
| 36 | Cc1cccc(-c2ccc([C@H]3[C@@H](CO)N4CCCCN(C(=O)c5ccc6c(c5)OCO6)C[C@H]34)cc2)c1 | 27 | . | . | . | -21[16.7 µM] | -11 |
| 37 | COc1ccc(C=C2CCc3ccccc3C2=O)cc1 | . | . | -1 | . | . | . |
| 38 | CCOc1ccc(/C=C2\CCc3ccccc3C2=O)cc1 | -28 | 95* | 10 | -96 | . | . |
| 39 | N/C(=N\OC(=O)c1ccccc1Br)c1ccc([N+](=O)[O-])cc1 | -14 | . | 7 | -53 | . | . |
| 40 | N/C(=N\OC(=O)c1ccccc1Br)c1cccc([N+](=O)[O-])c1 | -12 | 65 | 43* | -66 | . | -2 |

Continued.
| No. | SMILES | Yeast UUG start | MITF act | Wnt act | MITF TRPM1 inh | miR-122 sensor | PGC1a acetyl inh |
| --- | --- | --- | --- | --- | --- | --- | --- |
| 41 | N/C(=N\OC(=O)c1ccc(Br)cc1)c1cccc([N+](=O)[O-])c1 | 1 | 48 | 4 | -46 | -1 | 5 |
| 42 | Cc1ccc(C(=O)O/N=C(\N)c2cccc([N+](=O)[O-])c2)cc1 | -15 | 94* | -2 | -90 | -19 | . |
| 43 | c1ccc(-c2ccc3[nH]ccc3c2)cc1 | -15 | 93* | 17 | -95 | 1 | -7 |
| 44 | O=C1C=C(c2ccc3[nH]ccc3c2)CCC1 | -1 | ? | 46* | -87 | . | . |
| 45 | CC1(C)CC(=O)C=C(c2ccc3[nH]ccc3c2)C1 | 16 | 21 | 17 | -20 | . | . |
| 46 | COc1ccc(S(=O)(=O)N2[C@@H]3CNC[C@H]2C3c2ccc(-c3cccc(C)c3)cc2)cc1 (stereo partly specified) | . | . | . | . | . | 1 |
| 47 | Cn1cc(CC(=O)Nc2cccc(C#N)c2)c2ccccc21 | -7 | -1 | . | 7 | 138* | -6 |
| 48 | CCc1cccc(NC(=O)Cc2cn(C)c3ccccc23)c1 | -9 | . | 8 | 1 | 13 | -2 |
| 49 | CN1[C@H](C(=O)NCCN2CCCC2)[C@@H](CO)[C@@H]2Cn3c(ccc(/C=C/c4ccccc4)c3=O)[C@@H]21 | . | . | . | . | . | 0 |
| 50 | Cc1c(/C=C/C(=O)c2ccc(Cl)s2)cnn1C | 1 | . | 61* | -61 | -2 | 1 |
| 51 | C=CCOC(=O)[C@@H]1[C@H]2C(=O)O[C@H](c3ccccc3)[C@H](c3ccccc3)N2[C@H](c2ccc(OCCOC(=O)[C@@H]3C[C@@H]4C(=O)NCC(=O)N4[C@@H]3c3ccc(O)cc3)cc2)[C@@]12C(=O)Nc1ccc(I)cc12 | -13 | . | . | . | . | 16 |
| 52 | CCOC(=O)/C=C/S(=O)(=O)c1ccc(NC(C)=O)cc1 | -18 | -92 | . | 92* | -13 | . |
| 53 | COc1cc(C(F)(F)F)ccc1C(=O)NCCc1ccco1 | -6 | 107* | 4 | -104 | -1 | -3 |
